Results on one molecule are retold here after patent US11001572B2, “Pyrimidine derivative, method for preparing same and use thereof in medicine” (Zhejiang Hisun Pharmaceutical Co., Ltd., priority 2016, dated 2021).

This assay has as its system Huh7 tumor-bearing BALB/c nude mice xenografts. The experiment in a line: Growth inhibition of Huh7 xenografts in BALB/c nude mice. To be noted: mouse. On the procedure:
On day 0, Huh7 cells were cultured in DMEM medium containing 10% of fetal bovine serum, 100 U of penicillin, and 100 μg/mL of streptomycin. And cultured in an incubator of 37° C., 5% CO2.
Each mouse was inoculated subcutaneously in the right axilla with 150 μL of cell suspension (5.0×10^6 cells/mouse) under sterile conditions. On day 12 after inoculation, when the tumor grew to a volume of 200-300 mm^3, mice with similar tumor volume and good shape were selected (the shape was as single spherical as possible, no irregular shape or multiple tumors gathered together) and divided into 5 groups, each group had 9 mice.
Each group of animals was administrated (intraperitoneal injection (ip) or oral administration (po)) a test substance twice a day (bid) at a fix time per day according to the body weight of the animals. The first dose was administered on the day of grouping ([…]), and continued for 22 days, the body weight of the animals was recorded daily.
The formation of tumor in the inoculated part of each group of animals was observed. The long diameter (Y) and short diameter (X) of the tumor nodules were measured twice a week using vernier calipers and calculated according to the following formula: Volume of tumor nodules(V):V=(X^2Y)/2. […]
The relative tumor volume (RTV) is calculated as: RTV=100×TVt/TVinitial […]

For the molecule `C=CC(=O)Nc1cc(N2CCN(CC)C3(CC3)C2)ccc1Nc1cc(N(C)C(=O)Nc2c(Cl)c(OC)cc(OC)c2Cl)ncn1` [Example 5, N-(2-((6-(3-(2,6-Dichloro-3,5-dimethoxyphenyl)-1-methylureido)pyrimidin-4-yl)amino)-5-(4-ethyl-4,7-diazaspiro[2.5]octan-7-yl)phenyl)acrylamide], the “growth inhibitory effect against the in vivo tumor model in mice established based on Huh-7 cells” value is “significant growth inhibitory effect” and the “in vivo activity compared with the compound of Example 108 of WO2015057938” value is given as “superior to that of the compound of Example 108 of WO2015057938”.
